Literature values in article PMC10050139.

Target: Kemptide

Kd: 250 µM
Substance: PKA C-subunit (from UniProt P17612)
